Active and inactive are the calls of the source. The calls are words filed in the database; no cut-off is given here.
What was measured:
[1] = target: Lysine-specific histone demethylase 1A (Homo sapiens) (UniProt O60341); settings: Calu-6, 1 uM
[2] = target: Lysine-specific histone demethylase 1A (Homo sapiens) (UniProt O60341); settings: Calu-6, 1 uM; remark: listed apart in the source

N=C(N)NN
inhibition [1]: inactive | inhibition [2]: inactive

Reference: ChEMBL document CHEMBL2177075, “Low molecular weight amidoximes that act as potent inhibitors of lysine-specific demethylase 1” (J Med Chem, 2012)
